Measured values from paper PMC4005819.

Columns and labels:
[1] = tested on: N[C@@H](CO)C(=O)O; assay: purified protein; details: co-substrate homocysteine (standard assay 40 mM D,L-homocysteine), 0.4 mM PLP, Tris-HCl pH 8.4, 37°C, 45 min
[2] = tested on: N[C@@H](CCS)C(=O)O; assay: purified protein; details: co-substrate L-serine (standard assay 20 mM), D,L-homocysteine used in assay method, 0.4 mM PLP, Tris-HCl pH 8.4, 37°C, 45 min

rTrCβS (recombinant T. rangeli cystathionine β-synthase) (Trypanosoma rangeli; T2A)
Km [1]: 1.702 ± 0.11 mM | Km [2]: 7.301 ± 1.9 mM
